Source: publication PMC5599507 (Scientific Reports, 2017)

The chains behind the UniProt entries cited, without tags or fusion partners. Residues count along the entry.
UniProt Q12879, 23-1464: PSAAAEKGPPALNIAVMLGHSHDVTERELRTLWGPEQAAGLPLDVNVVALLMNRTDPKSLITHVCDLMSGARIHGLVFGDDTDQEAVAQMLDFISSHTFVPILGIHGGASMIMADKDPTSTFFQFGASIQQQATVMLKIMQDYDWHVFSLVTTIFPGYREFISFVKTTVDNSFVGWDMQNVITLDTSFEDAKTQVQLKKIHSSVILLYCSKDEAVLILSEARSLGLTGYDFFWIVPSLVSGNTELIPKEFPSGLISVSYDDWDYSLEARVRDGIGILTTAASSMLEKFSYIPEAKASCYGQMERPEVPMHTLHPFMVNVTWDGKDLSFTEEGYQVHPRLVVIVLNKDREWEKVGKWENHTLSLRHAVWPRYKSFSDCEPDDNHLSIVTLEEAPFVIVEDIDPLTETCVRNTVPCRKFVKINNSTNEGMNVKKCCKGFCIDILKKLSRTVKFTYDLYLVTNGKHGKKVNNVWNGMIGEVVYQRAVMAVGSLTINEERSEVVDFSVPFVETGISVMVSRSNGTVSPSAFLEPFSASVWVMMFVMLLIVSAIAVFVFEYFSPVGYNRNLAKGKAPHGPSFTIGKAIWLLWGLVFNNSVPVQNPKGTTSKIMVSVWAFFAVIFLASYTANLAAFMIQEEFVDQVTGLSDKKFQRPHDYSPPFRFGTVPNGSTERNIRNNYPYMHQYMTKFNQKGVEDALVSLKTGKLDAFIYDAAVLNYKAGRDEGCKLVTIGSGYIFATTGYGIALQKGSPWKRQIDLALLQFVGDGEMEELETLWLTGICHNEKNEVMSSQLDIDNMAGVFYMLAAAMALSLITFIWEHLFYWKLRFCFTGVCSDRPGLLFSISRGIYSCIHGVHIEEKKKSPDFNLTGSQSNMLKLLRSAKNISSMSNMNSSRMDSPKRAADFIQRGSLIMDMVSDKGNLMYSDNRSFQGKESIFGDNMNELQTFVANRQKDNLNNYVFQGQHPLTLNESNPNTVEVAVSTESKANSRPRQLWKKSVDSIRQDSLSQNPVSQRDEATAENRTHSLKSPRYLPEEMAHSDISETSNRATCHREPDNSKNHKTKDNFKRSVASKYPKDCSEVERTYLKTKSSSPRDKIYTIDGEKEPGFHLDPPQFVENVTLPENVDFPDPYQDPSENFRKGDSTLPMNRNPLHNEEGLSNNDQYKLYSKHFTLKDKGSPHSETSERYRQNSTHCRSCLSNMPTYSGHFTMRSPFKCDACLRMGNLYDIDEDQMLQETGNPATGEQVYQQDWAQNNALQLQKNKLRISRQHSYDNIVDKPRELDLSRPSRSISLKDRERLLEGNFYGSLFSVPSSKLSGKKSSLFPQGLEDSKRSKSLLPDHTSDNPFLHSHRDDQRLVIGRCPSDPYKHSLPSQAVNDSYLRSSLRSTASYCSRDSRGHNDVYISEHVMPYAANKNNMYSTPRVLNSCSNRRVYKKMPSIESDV

Target: T1, NR1/NR2A NMDAR (Homo sapiens, UniProt Q05586+Q12879)
T1 construct: cDNAs for the GRIN1 (NM_007327), GRIN2A (NM_000833.3), GRIN2B (NM_000834.3) and Kir2.1 (NM_000891.2) proteins were purchased from GeneCopoeia; expressed in transfected cells; host or cells: HEK293 cells (ATCC) transduced with BacMam baculovirus (pFastBac-CMV-GW-DEST); virus made in Sf9
Assay: NMDAR-mediated calcium flux assay, NR1/NR2A-transduced HEK293 cells
Format: cell-based
Conditions: MDL105,519-protected cells after washout

## N[C@@H](CCC(=O)O)C(=O)O [glutamate]
  dose-dependent activation of NMDAR-mediated calcium flux: No significant dose-dependent activation
